Values quoted from earlier work as cited in PMC5997768 (2018).

Assays:
[1] = cited from earlier work; for pKa: experimentally determined
[2] = calculated value, no experimental value available; cited from earlier work

SMILES	Experimentally obtained pKa at 25 °C ([1]; 25 °C)	pKa [1]	pKa [2]
CCC(=O)N(c1ccccc1)C1CCN(CCc2ccccc2)CC1	8.43	8.43	–
CCC(=O)N(c1ccccc1)C1(COC)CCN(CCn2nnn(CC)c2=O)CC1	–	–	7.82
CCC(=O)N(c1ccccc1)C1(COC)CCN(CCc2cccs2)CC1	–	7.85	–
CCC(=O)N(c1ccccc1)C1(C(=O)OC)CCN(CCC(=O)OC)CC1	–	–	7.51

Where two headings read alike, the source gives them in different places. Only a part of the results on these compounds is given; other tests are left out.
